# “Also recorded” adds a separate entry of the source.
# Amino acid sequences for entries named in this document (tags omitted). Residues count along the entry.
# UniProt P41145, whole entry E297Q: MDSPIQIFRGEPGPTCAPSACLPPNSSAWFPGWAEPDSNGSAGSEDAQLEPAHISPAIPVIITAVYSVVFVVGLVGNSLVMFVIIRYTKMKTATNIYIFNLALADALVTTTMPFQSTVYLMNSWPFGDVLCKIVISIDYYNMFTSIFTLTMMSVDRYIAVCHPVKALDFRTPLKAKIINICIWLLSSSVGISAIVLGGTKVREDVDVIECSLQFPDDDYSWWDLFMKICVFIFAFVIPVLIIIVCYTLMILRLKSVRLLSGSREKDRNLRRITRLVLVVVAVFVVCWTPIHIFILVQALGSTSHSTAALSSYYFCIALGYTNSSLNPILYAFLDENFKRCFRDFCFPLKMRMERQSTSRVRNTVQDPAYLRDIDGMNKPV
# UniProt P41145, 1-345 E297Q: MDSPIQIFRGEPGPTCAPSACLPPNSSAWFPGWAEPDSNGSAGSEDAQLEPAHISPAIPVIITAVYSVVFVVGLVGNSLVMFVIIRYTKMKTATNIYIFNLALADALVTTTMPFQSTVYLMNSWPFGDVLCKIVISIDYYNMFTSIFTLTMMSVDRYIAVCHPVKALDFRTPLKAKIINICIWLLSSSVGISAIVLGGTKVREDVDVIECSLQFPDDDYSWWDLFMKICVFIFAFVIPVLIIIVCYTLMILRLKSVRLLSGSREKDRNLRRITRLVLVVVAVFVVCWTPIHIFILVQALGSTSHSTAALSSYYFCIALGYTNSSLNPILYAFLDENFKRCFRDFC
# How the values were obtained:
# Type in all cases: cell-based
# [1] = molecular target: T1, Rog (Homo sapiens, UniProt P41145, E297Q, form not given)
# [2] = molecular target: T1, Rog; remark: listed apart in the source
# [3] = molecular target: T2, Rog-μA (Homo sapiens, UniProt P41145, E297Q, form not given); assay: Confocal microscopy of GFP-tagged receptor localization; details: overnight 10 μM norBNI
# [4] = molecular target: T1, Rog; remark: listed apart in the source
# [5] = molecular target: Rog-μ (Homo sapiens, UniProt P41145, E297Q, form not given)
# [6] = molecular target: T2, Rog-μA; assay: Cell-surface ELISA (surface expression); details: norBNI 10 μM, 18 h, stably transfected HEK293
Compound,receptor internalization seen by confocal microscopy [1],transient calcium response (Gi activation via Gqi5) [2],receptor localization seen by confocal microscopy [3],receptor localization seen by confocal microscopy [1],effect on cell-surface expression [4],effect on cell-surface expression [5],effect on cell-surface expression [6]
dynorphin A 1–13,did not lead to significant internalization; also recorded: caused little internalization,but not to a range of doses of dynorphin,,,,,
Oc1ccc2c3c1O[C@H]1c4[nH]c5c(c4C[C@@]4(O)[C@@H](C2)N(CC2CC2)CC[C@]314)C[C@@]1(O)[C@H]2Cc3ccc(O)c4c3[C@@]1(CCN2CC1CC1)[C@H]5O4 [norBNI],,,most of the Rog-μA was seen in the plasma membrane,little effect on their localization,no effect,"increased the cell-surface expression of Rog-μ, but to a lesser degree",nearly doubled
